{"sequences": {"note": "The chains behind the UniProt entries cited, without tags or fusion partners.", "UniProt P80244, whole entry": "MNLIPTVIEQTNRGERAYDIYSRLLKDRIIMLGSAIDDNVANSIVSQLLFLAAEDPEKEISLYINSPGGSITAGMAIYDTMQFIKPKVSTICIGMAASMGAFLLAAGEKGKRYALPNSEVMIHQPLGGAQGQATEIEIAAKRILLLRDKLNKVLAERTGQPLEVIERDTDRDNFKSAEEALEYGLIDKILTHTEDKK"}, "source": "PubChem BioAssay AID651965", "about": "(National Center for Advancing Translational Sciences (NCATS), 2013)", "note": "Values joined by “and” are separate entries in the source; they are usually repeats but may differ in a detail not shown here. Equal entries are not always repeated. Only a part is listed here, and it is no random draw. Some results for these compounds are left out of this collection, so the calls shown say nothing about other tests. Records with an inconclusive call do not appear. Active and inactive are the calls of the source. The call rests on the fitted dose curve; in most records, active means well fitted falling curve with a large enough effect; inconclusive means small, poorly fitted or top-dose-only effect; inactive means no such curve, though single readings can be large or run the other way."}
{"target": "ATP-dependent Clp protease proteolytic subunit (Bacillus subtilis (strain 168)) (UniProt P80244)", "assay": "qHTS Assay for Activators of ClpP; further: the source files actives as falling curves though it sought activators and does not explain the sign; nearly all actives have a fitted effect of over 65% in size", "conditions": "purified B. subtilis ClpP, FRET peptide cleavage, 20 min; at 57.5 µM (top of the series)"}
{"compound": "CN(C)C1(CNC(=O)c2ccccc2F)CCCCC1", "activity change, negative = active": "inactive: 1.14%"}
{"compound": "CC(C)N1C(=O)CC2(CCN(CCOC(=O)C(O)(c3ccccc3)c3ccccc3)CC2)C1=O", "activity change, negative = active": "inactive: 3.33%"}
{"compound": "CN(C)C1(CNC(=O)c2cccc(Cl)c2)CCCCC1", "activity change, negative = active": "inactive: 0.753%"}
{"compound": "COc1cc(SC)ccc1C(=O)NCC1(N(C)C)CCCCC1", "activity change, negative = active": "inactive: -0.786%"}
{"compound": "CN1[C@@H]2CC[C@H]1CC(OC(=O)C(O)(c1ccccc1)c1ccccc1)C2", "note": "(some centres not stated)", "activity change, negative = active": "inactive: 0.799%"}
{"compound": "COc1ccc(C(=O)NCC2(N(C)C)CCCCC2)cc1", "activity change, negative = active": "inactive: 0.208%"}
{"compound": "CCOc1cccc(C(=O)NCC2(N(C)C)CCCCC2)c1", "activity change, negative = active": "inactive: -1.76%"}
{"compound": "C=CCN1CCN(CCOC(=O)C(O)(c2ccccc2)c2ccccc2)CC1", "activity change, negative = active": "inactive: 2.25%"}
{"compound": "O=C(NCC1(N2CCCCC2)CCCCC1)c1cc(F)c(F)cc1Cl", "activity change, negative = active": "inactive: -0.135%"}
{"compound": "CCCCOc1ccccc1C(=O)NCC1(N(C)C)CCCCC1", "activity change, negative = active": "inactive: -2.07%"}
{"compound": "CN(C)C1(CNC(=O)c2ccccc2[N+](=O)[O-])CCCCC1", "activity change, negative = active": "inactive: -4.62%"}
{"compound": "Cc1ccccc1C(=O)NCC1(N2CCCCC2)CCCCC1", "activity change, negative = active": "inactive: -1.52%"}
{"compound": "CN(C)C1CCCC1OC(=O)C(O)(c1ccccc1)c1ccccc1", "note": "(configuration not stated)", "activity change, negative = active": "inactive: -3.54%"}
{"compound": "CN(C)c1ccc(C(=O)NCC2(N(C)C)CCCCC2)cc1", "activity change, negative = active": "inactive: -6.03%"}
{"compound": "COc1ccc(C(=O)NCC2(N(C)C)CCCCC2)cc1Cl", "activity change, negative = active": "inactive: -0.669%"}
{"compound": "COc1cc(C(=O)NCC2(N(C)C)CCCCC2)c([N+](=O)[O-])cc1OC", "activity change, negative = active": "inactive: 0.13%"}
{"compound": "O=C(CBr)c1ccc(Cl)cc1", "activity change, negative = active": "inactive: 0.273%"}
{"compound": "CN(C)c1cccc(C(=O)NCC2(N(C)C)CCCCC2)c1", "activity change, negative = active": "inactive: 11.3%"}
{"compound": "CC(C)Oc1ccc(C(=O)NCC2(N(C)C)CCCCC2)cc1", "activity change, negative = active": "inactive: -0.959% and inactive: -26.4%"}
{"compound": "O=C(OCCN1CCCC1)C(O)(c1ccccc1)c1ccccc1", "activity change, negative = active": "inactive: -3.44%"}
{"compound": "COc1cc(C(=O)NCC2(N(C)C)CCCCC2)cc(OC)c1OC", "activity change, negative = active": "inactive: -6.62%"}
{"compound": "Cc1cccc(C(=O)NCC2(N(C)C)CCCCC2)c1", "activity change, negative = active": "inactive: 0.326%"}
{"compound": "COc1ccc(Br)c(C(=O)NCC2(N3CCCCC3)CCCCC2)c1", "activity change, negative = active": "inactive: -3.66%"}
{"compound": "C=C(C)C#CC(O)(C(=O)OC1CCN(C)CC1)c1ccccc1", "note": "(configuration not stated)", "activity change, negative = active": "inactive: -1.39%"}
{"compound": "CC(C)COc1ccc(C(=O)NCC2(N(C)C)CCCCC2)cc1", "activity change, negative = active": "inactive: 1.04%"}
{"compound": "O=C(OC1CN2CCC1CC2)C(CO)(c1ccccc1)c1ccccc1", "note": "(configuration not stated)", "activity change, negative = active": "inactive: -2.27%"}
{"compound": "COc1cccc(C(=O)NCC2(N3CCOCC3)CCCCC2)c1", "activity change, negative = active": "inactive: -2.28%"}
